Source: ChEMBL document CHEMBL1158437, “The discovery of the potent aurora inhibitor MK-0457 (VX-680)” (Bioorg Med Chem Lett, 2009)

Sequences of proteins named here, by UniProt entry; tags and fusion partners are left off. A change or cut given only in a name is not applied to a line headed by its entry.
UniProt P49841: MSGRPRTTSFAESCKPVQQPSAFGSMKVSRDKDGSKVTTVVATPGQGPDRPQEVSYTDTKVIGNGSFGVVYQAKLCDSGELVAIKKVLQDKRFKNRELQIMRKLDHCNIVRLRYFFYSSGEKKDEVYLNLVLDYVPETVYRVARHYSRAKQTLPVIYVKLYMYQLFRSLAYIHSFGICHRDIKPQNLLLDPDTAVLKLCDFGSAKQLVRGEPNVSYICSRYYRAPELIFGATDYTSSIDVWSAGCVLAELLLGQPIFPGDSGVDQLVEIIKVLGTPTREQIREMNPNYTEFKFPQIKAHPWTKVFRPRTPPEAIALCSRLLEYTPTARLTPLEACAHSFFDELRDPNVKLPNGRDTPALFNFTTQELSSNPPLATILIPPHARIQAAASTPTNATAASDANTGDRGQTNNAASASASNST
UniProt P12931: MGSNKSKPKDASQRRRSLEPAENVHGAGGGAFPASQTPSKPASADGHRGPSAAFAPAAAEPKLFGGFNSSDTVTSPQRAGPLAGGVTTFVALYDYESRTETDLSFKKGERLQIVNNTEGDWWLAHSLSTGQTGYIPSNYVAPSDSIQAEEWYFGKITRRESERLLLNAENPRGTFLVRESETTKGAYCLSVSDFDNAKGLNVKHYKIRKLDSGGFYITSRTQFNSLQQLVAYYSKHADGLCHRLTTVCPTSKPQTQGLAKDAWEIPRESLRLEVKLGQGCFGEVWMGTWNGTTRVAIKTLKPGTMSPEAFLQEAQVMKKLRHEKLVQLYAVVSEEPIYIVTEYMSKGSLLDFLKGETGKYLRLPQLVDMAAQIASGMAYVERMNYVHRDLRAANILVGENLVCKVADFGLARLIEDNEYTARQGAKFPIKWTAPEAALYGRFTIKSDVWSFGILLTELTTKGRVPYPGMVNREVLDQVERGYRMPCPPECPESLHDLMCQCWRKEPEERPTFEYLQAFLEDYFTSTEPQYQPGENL

Assays:
[1] = molecular target: Glycogen synthase kinase-3 beta (Homo sapiens, UniProt P49841)
Aurora kinase A = molecular target: T1, Aurora kinase A (Homo sapiens, UniProt O14965)
T1 sequence (O14965 whole entry): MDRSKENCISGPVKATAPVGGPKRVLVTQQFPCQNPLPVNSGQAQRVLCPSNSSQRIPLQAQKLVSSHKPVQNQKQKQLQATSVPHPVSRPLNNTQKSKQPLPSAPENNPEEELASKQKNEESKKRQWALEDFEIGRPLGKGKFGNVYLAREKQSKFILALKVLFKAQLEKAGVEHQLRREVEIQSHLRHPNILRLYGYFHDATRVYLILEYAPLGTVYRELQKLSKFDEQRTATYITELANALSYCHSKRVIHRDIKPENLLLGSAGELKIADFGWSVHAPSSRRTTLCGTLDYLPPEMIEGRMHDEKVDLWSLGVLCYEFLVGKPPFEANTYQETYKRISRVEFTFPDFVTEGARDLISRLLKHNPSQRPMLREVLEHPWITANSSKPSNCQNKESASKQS

[2] = molecular target: Proto-oncogene tyrosine-protein kinase Src (Homo sapiens, UniProt P12931); assay: Inhibition of Src

Compound | Ki [1] [nM] | Ki (Aurora kinase A) [nM] | Ki [2] [nM]
Cc1cc(Nc2nc(Sc3ccccc3)nc3ccccc23)n[nH]1 | 171 | 20 | 800
Cc1cc(Nc2nc(Nc3ccccc3)nc3ccccc23)n[nH]1 | 24 | 24 | 393
Cc1cc(Nc2nc(Oc3ccccc3)nc3ccccc23)n[nH]1 | 51 | 36 | 1290
Cc1cc(Nc2nc(Sc3cccc(Cl)c3)nc3ccccc23)n[nH]1 | 33 | 4 | –
Cc1cc(Nc2nc(Sc3ccc(NC(=O)OC(C)(C)C)cc3)nc3ccccc23)n[nH]1 | – | 9 | –
COc1ccccc1Sc1nc(Nc2cc(C)[nH]n2)c2ccccc2n1 | 216 | 24 | –
Cc1cc(Nc2nc(Sc3ccc(Cl)cc3)nc3ccccc23)n[nH]1 | 44 | 6 | –
Cc1cc(Nc2nc(Sc3cccc(Cl)c3Cl)nc3ccccc23)n[nH]1 | 48 | 3 | –
Cc1cc(Nc2nc(Sc3ccccc3Cl)nc3ccccc23)n[nH]1 | 126 | 5 | –
Cc1cc(Nc2nc(Sc3c(Cl)cccc3Cl)nc3ccccc23)n[nH]1 | 113 | 5 | –
COc1ccc(Sc2nc(Nc3cc(C)[nH]n3)c3ccccc3n2)cc1OC | 1170 | 17 | 2180
CC(=O)Nc1ccc(Sc2nc(Nc3cc[nH]n3)c3ccccc3n2)cc1 | 605 | 24 | 277
Cc1cc(Nc2nc(N(C)c3ccccc3)nc3ccccc23)n[nH]1 | 312 | 17 | 1060
COc1ccc(Sc2nc(Nc3cc(C)[nH]n3)c3ccccc3n2)cc1 | 124 | 9 | –
Cc1cc(Nc2nc(Sc3ccc(NS(C)(=O)=O)cc3)nc3ccccc23)[nH]n1 | – | – | 681

More lines, now with the values ahead:

Ki [1] [nM] | Ki (Aurora kinase A) [nM] | Ki [2] [nM] | Compound
338 | < 1 | 1740 | CC(=O)Nc1ccc(Sc2nc(Nc3cc(C4CC4)[nH]n3)c3ccccc3n2)cc1
– | 1 | – | Cc1cc(Nc2nc(Sc3ccc4ccccc4c3)nc3ccccc23)n[nH]1
8 | 2 | – | Cc1cc(Nc2nc(Sc3ccc(Cl)cc3Cl)nc3ccccc23)n[nH]1
1310 | < 1 | – | Cc1cc(Nc2nc(Sc3ccc(NC(=O)C4CC4)cc3)nc3ccccc23)n[nH]1
1500 | 1 | 720 | CCC(=O)Nc1ccc(Sc2nc(Nc3cc(C)[nH]n3)c3ccccc3n2)cc1
> 15 | 2 | – | Cc1cc(Nc2nc(Sc3ccc(Cl)c(Cl)c3)nc3ccccc23)n[nH]1
